# From PubChem
# miR-21 FLuc – raises the signal of a miR-21 reporter | Potency, µM (doses to about 38.3 µM), for inactives: top-dose reporter change, positive = more light | HeLa miR-21 FLuc reporter, luciferase, 48 h | AID 2288 | 340,000 tested, under 10 active; active = well fitted rising curve with a large enough effect; inconclusive = small, poorly fitted or top-dose-only effect; inactive = no such curve, though single readings can be large or run the other way;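 also: % of control where 0% means no effect; miR-21 action dims this reporter so a rising signal means less miR-21 action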
#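 Compounds were titrated across several concentrations (up to approximately 40 uM) and incubated 48 hours with HeLa miR-21-FLuc reporter cells (miR-21 target sequence downstream of FLuc, endogenous miR-21). Readout was firefly luciferase luminescence after lytic detection reagent.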
# Nrf2 block – blocks Nrf2 signaling; Potency, µM (top dose mostly 46 µM), inactives show at the highest dose activity change, negative = inhibition, most hits filed as inhibitors; AID 504444; A549 ARE-Fluc reporter, luciferase luminescence, 18-24 h; 360,000 compounds, 2.1% hits; further: potency means the concentration at half of the fitted maximal effect; on the % scale 0 is the no-effect control and ±100 the full control effect; nearly all actives have a fitted effect of over 60% in size
#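 Reporter: ARE-Fluc in A549. Exposure: 18-24 h, 37 °C, 5% CO2, 5% FBS OPTI-MEM. Readouts: fluorescent cytotoxicity (CellTiter-Fluor), then luminescent Nrf2 signal after BugLite.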
# A549 viability – kills or reduces viability of A549 cells in Nrf2 counter-screen; A549 ARE-Fluc cells, CellTiter-Fluor viability, 18-24 h; Potency, µM (doses to about 46 µM), for inactives: at the highest dose activity change, negative = cytotoxicity, usual class: inhibitors; 390,000 compounds, 0.16% hits; further: potency means the concentration at half of the fitted maximal effect; on the % scale 0 is the no-effect control and ±100 the full control effect
#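 A549 ARE-Fluc cells in 5% FBS OPTI-MEM, 5000 cells/well, rested 2 h then exposed to compounds in concentration-response for 18-24 h at 37 °C. Viability by CellTiter-Fluor fluorescence (Ex 405/Em 525) after 30 min; luciferase luminescence (BugLite, 15 min, RT) read afterwards.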
# TSG101-PTAP inh – blocks PTAP/TSG101 interaction to inhibit HIV-1 budding; Q99816; Fluorescence polarization, FITC-PTAP peptide / Tsg101 binding; Potency, µM (top dose mostly 115 µM), for inactives: at the highest dose activity change, negative = inhibition, hits mostly inhibitors; 340,000 tested, under 10 active; AID 493005; active means well fitted inhibition curve with a large enough effect in the main read-out, with a control signal flat, not every such curve was filed as active; inconclusive means small, poorly fitted or top-dose-only effect, or effect the other way, or a change in a side signal; inactive means no such curve, though single readings can be large or run the other way; further: potency means the concentration at half of the fitted maximal effect; % of control where 0% means no effect
#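 Fluorescence anisotropy tracks displacement of a FITC-tagged PTAP peptide (50 nM) from the Tsg101 binding domain (10 uM), following a 20 min room-temperature incubation at pH 7.5.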
# Nrf2 ARE act – Nrf2 pathway activation; AREc32 ARE-luciferase reporter (MCF7-derived line), luminescence, 24 h; Potency, µM (doses to about 46.1 µM), for the others: at the highest dose activation, most hits filed as activators; 410,000 compounds, 0.31% hits; AID 624171; further: potency means the concentration at half of the fitted maximal effect; % of control where 0% means no effect; nearly all actives have a fitted effect of over 65% in size
#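 Steps: seed AREc32_Fluc cells (1000/well, 5% FBS OPTI-MEM); incubate overnight at 37 deg C; add 23 nL compound; incubate 24 hr; add Steady-Glo; hold 30 min RT; read luminescence.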
# GRP78 ERSR act – induces the endoplasmic reticulum stress response in human glioma cells; Potency, µM, for inactives: at the top dose activation, usual class: activators; 420,000 compounds, 0.02% hits; U87-MG GRP78 promoter luciferase reporter, 16 h; AID 602332; further: potency means the concentration at half of the fitted maximal effect; series mostly up to about 76 µM; % of control where 0% means no effect; nearly all actives have a fitted effect of over 35% in size
#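 Stably transfected U87-MG human glioma cells carrying a GRP78-based luminescent sensor were seeded at 1000 cells/well, pin-dosed with compounds and incubated 16 h. Luciferase reagent was then added, and end-point luminescence was read after 10 min at room temperature.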
# * = called active by the depositor; u = inconclusive; x = not tested or not shown; [ ] = another dose, or the depositor's remark. Hits are enriched below; roughly 2.1% of the tested compounds scored in any of these assays. Unless noted, the call rests on the fitted dose curve; in most records, active means well fitted curve in the direction sought with a large enough effect; inconclusive means small, poorly fitted or top-dose-only effect, or another doubt; inactive means no such curve, though single readings can be large; an effect the other way counts as inactive or inconclusive.
# Fields – miR-21 FLuc	Nrf2 block	A549 viability	TSG101-PTAP inh	Nrf2 ARE act	GRP78 ERSR act
CCC(N)CCc1c[nH]c2ccccc12 (stereo not drawn)
 : x	x	x	x	x	-2%
CCc1cccc(NC(=O)c2ccc(NC(=O)N3CCSc4ncccc43)cc2)c1
 : -32%	u	-10%	x	5%	-4%
COc1ccccc1C(=O)Nc1ccc2nc(SCC(=O)N3CCCc4ccccc43)sc2c1
 : 21%	18µM*	-6%	x	4%	-4%
Cc1c(C(=O)NCCC2=CCCCC2)oc2ccc(S(=O)(=O)N3CCC4(CC3)OCCO4)cc12
 : 20%	7.3µM*	-16%	2%	2%	-3%
CC1=C2C(=O)C3C(CC=C4C[C@@H](O)CC[C@@]43C)[C@@H]2CC[C@]12O[C@@H]1C[C@H](C)CN[C@H]1C2C (stereo partly drawn)
 : x	x	x	x	x	-3%
C[N+]1(CCF)[C@@H]2CC[C@@H]1CC(OC(=O)C(O)(c1ccccc1)c1ccccc1)C2 (stereo partly drawn)
 : x	x	x	x	x	-3%
CCN(CC)c1ccc(/C=C/[N+](=O)[O-])cc1
 : 0%	4%	2%	6%	1%	0%
O=[N+]([O-])/C=C/c1c(Cl)cccc1Cl
 : x	-26%	-6%	0%	14µM*	-14%
CCOC(=O)[C@]12Cc3cc(C)ccc3[C@H]1N(Cc1ccccc1)C(=O)c1ccccc12
 : x	23µM*	u	-3%	-1%	-4%
CCOc1ccc(-c2cc(C(=O)N3CCN(S(=O)(=O)c4cc(Cl)ccc4OC)CC3)[nH]n2)cc1
 : 24%	u	-15%	x	0%	-3%
CCCc1nc2ccc(Br)cc2c(=O)n1-c1ccc([N+](=O)[O-])c(C(F)(F)F)c1
 : u	21µM*	-23%	-3%	6%	-6%
O=C(O)CNC(=O)C(CS)Cc1ccccc1 (stereo not drawn)
 : x	10µM*	-10%	-1%	0%	0%
CC(Cc1ccccc1)NC(N)=O (stereo not drawn)
 : 4%	-1%	2%	1%	0%	-3%
O=C1/C(=C/c2ccc(N(CCCl)CCCl)cc2)Cc2ccccc21
 : x	x	x	x	x	0%
CCOC(=O)C(O)(c1ccc(NC(=S)NC(=O)c2ccc(Cl)cc2Cl)c(C)c1)C(F)(F)F (stereo not drawn)
 : u	15µM*	u	0%	-1%	2%
CCCc1cc(N2CCN(c3ccc(OC)cc3)CC2)n2cnnc2n1
 : 24%	12µM*	-18%	x	-1%	-2%
COc1ccc(N2CCN(Cc3nc4ccccc4[nH]3)CC2)cc1
 : -6%	1%	3%	2%	3%	2%
Cc1ccc2c(c1)[C@]13CCCC[C@@H]1[C@@H](C2)N(C)CC3
 : x	x	x	x	x	-3%
Cc1ccc(NC(=O)COc2ccc(-c3nn(C)c(=O)c4ccccc34)cc2)c(C)c1
 : 9%	18µM*	-15%	x	0%	x
CCN(CC)C(=O)c1ccc(NC(=O)COc2ccc(-c3nn(C)c(=O)c4ccccc34)cc2)cc1
 : 14%	u	-7%	-4%	4%	1%

# Other compounds:
Compound	miR-21 FLuc	Nrf2 block	A549 viability	TSG101-PTAP inh	Nrf2 ARE act	GRP78 ERSR act
CCC(=NCc1cc(OC)cc(OC)c1)c1c(O)n(C)c(=O)n(C)c1=O	-1%	23µM*	u	-1%	0%	-4%
CC[C@@]1(O)C(=O)OCc2c1cc1n(c2=O)Cc2cc3c(NC(=O)CN)cccc3nc2-1	14%	2.6µM*	-8%	1%	0%	-5%
CCC1(OC(=O)CN)C(=O)OCc2c1cc1n(c2=O)Cc2cc3ccccc3nc2-1 (stereo not drawn)	u	0.58µM*	u	1%	0%	-7%
Cc1cc(C)cc(OCC(=O)Nc2ccc(-c3nc4ccccc4s3)cc2)c1	-41%	-1%	0%	x	3%	0%
Cc1c(P(=S)(c2ccccc2)c2ccccc2)[n+]2ccccc2n1CCCc1ccccc1	x	u	-14%	x	x	x
C[C@@H]1O[C@@H](O[C@@H]2C=C3CC[C@@H]4C(CC[C@]5(C)[C@@H](c6ccc(=O)oc6)CC[C@]45O)[C@@]3(C)CC2)[C@H](O)[C@H](O)[C@H]1O (stereo partly drawn)	x	0.023µM*	u	-3%	-3%	-7%
CCOc1ccc(-n2c(/C=C/c3ccccc3)nc3ccccc3c2=O)cc1	-3%	x	2%	x	4%	1%
CCn1nc(/C=C/c2ccccc2)nc2c(=O)n(C)c(=O)nc1-2	-17%	u	5.8µM*	-3%	-3%	-12%
CCn1nc(-c2cccs2)nc2c(=O)n(C)c(=O)nc1-2	0%	5.2µM*	1.5µM*	5%	-4%	-17%
CCOc1ccc(-n2c(-c3cccs3)nc3ccccc3c2=O)cc1	2%	-23%	-1%	-8%	-1%[9.22 µM]	-1%
CCC(=O)O[C@@](Cc1ccccc1)(c1ccccc1)[C@H](C)CN(C)C	x	x	x	x	x	-3%
COc1cc([C@@H]2c3cc4c(cc3[C@H](O)[C@H]3COC(=O)[C@@H]23)OCO4)cc(OC)c1OC	x	u	-12%	x	x	-2%
COc1ccc([N+](=O)[O-])cc1CSc1ccccn1	-17%	26%	8%	-3%	11µM*	2%
CCCCCc1cc(O)c2c(c1)OC(C)(C)c1ccc(C)cc1-2	x	x	x	x	x	-11%
CC(O)(CS(=O)(=O)c1ccccc1)C(=O)Nc1ccc(C(F)(F)F)cc1 (stereo not drawn)	1%	x	8%	-14%	0%	-5%
CCCC(C)c1nnc(NC(=O)CCS(=O)(=O)c2ccccc2)s1 (stereo not drawn)	14%	1%	1%	-1%	22µM*	-15%
COc1ccc(CCNC(=O)c2ccc3c(c2)N=C(C)c2cc(C)ccc2S3)cc1OC	19%	15µM*	-11%	x	-1%	-1%
O=C(/C=C/c1ccccc1)c1c(O)n(CCc2ccccc2)c(=O)[nH]c1=O	-3%	-6%	u	0%	8.9µM*	-4%
CC[C@H](O)C(C[C@H](C)N(C)C)(c1ccccc1)c1ccccc1	x	x	x	x	x	-5%
Cc1cc(C)c2c(ccc3cccc[n+]32)c1	x	1.3µM*	u	-1%	-1%	-3%
Clc1ccc(C[n+]2c(-c3ccccc3)cc(-c3ccccc3)cc2-c2ccccc2)cc1	x	21µM*	u	-2%	-3%	0%
Fc1ccc(C[n+]2c(-c3ccccc3)cc(-c3ccccc3)cc2-c2ccccc2)cc1	x	18µM*	u	-1%	-1%	1%

# Some of the entries above in a different format:
molecule: CCOc1ccc(-n2c(/C=C/c3ccccc3)nc3ccccc3c2=O)cc1
  miR-21 FLuc: -3%
  Nrf2 block: x
  A549 viability: 2%
  TSG101-PTAP inh: x
  Nrf2 ARE act: 4%
  GRP78 ERSR act: 1%

molecule: CCn1nc(/C=C/c2ccccc2)nc2c(=O)n(C)c(=O)nc1-2
  miR-21 FLuc: -17%
  Nrf2 block: u
  A549 viability: 5.8µM*
  TSG101-PTAP inh: -3%
  Nrf2 ARE act: -3%
  GRP78 ERSR act: -12%

molecule: CCn1nc(-c2cccs2)nc2c(=O)n(C)c(=O)nc1-2
  miR-21 FLuc: 0%
  Nrf2 block: 5.2µM*
  A549 viability: 1.5µM*
  TSG101-PTAP inh: 5%
  Nrf2 ARE act: -4%
  GRP78 ERSR act: -17%

molecule: CCOc1ccc(-n2c(-c3cccs3)nc3ccccc3c2=O)cc1
  miR-21 FLuc: 2%
  Nrf2 block: -23%
  A549 viability: -1%
  TSG101-PTAP inh: -8%
  Nrf2 ARE act: -1%[9.22 µM]
  GRP78 ERSR act: -1%
